Source: PubChem BioAssay AID489030 (Sanford-Burnham Center for Chemical Genomics, 2010)
The entries are a selection whose mix differs from that of the whole data set. Activity calls are given as the source filed them. Rule for the calls: active = inhibition of at least 40% at 20 µM; inactive = the rest.

Sequences of proteins named here, by UniProt entry; tags and fusion partners are left off. A change or cut given only in a name is not applied to a line headed by its entry.
UniProt O14727: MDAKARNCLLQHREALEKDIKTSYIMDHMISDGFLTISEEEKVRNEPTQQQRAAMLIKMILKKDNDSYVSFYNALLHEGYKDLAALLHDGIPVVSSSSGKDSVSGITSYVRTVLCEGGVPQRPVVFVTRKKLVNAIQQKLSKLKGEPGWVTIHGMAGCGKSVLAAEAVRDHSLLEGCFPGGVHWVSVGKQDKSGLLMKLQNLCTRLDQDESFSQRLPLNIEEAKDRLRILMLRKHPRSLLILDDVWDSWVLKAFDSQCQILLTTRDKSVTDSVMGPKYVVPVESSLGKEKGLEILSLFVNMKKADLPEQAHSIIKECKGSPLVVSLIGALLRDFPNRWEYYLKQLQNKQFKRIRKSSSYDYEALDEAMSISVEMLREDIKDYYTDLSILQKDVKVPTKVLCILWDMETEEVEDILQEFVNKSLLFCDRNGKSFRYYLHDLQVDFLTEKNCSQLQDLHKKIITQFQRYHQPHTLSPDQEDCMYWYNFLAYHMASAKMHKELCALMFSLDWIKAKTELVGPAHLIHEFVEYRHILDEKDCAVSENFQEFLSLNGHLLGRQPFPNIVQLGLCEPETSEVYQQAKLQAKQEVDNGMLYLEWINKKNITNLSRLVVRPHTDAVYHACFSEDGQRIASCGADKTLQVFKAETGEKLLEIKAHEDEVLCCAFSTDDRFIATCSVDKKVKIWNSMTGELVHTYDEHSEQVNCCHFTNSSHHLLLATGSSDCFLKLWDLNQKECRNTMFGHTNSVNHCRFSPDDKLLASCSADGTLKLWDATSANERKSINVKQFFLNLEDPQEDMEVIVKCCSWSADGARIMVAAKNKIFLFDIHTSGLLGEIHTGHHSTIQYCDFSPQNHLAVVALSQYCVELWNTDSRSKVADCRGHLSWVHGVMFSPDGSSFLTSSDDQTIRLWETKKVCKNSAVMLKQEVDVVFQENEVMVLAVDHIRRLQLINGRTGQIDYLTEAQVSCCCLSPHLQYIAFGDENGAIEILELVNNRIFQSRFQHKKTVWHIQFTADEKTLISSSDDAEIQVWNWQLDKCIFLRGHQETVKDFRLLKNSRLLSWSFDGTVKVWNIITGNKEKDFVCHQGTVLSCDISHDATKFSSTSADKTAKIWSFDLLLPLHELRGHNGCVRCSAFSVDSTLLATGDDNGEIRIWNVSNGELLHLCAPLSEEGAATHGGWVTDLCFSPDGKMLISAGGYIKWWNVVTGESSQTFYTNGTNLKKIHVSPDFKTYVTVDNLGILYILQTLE

What follows are compounds tested against Apoptotic protease-activating factor 1 (Homo sapiens) (UniProt O14727) (assay: inhibitors of human Apaf-1 apoptosome, primary screen, biochemical, DEVD-Rh110 fluorescence, uHTS (AID 489030;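 note: plate controls were DMSO wells for no effect and DEVD-CHO caspase inhibitor wells for full effect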)). Settings: reconstituted apoptosome caspase-3 activity, at 20 µM, stronger effect = higher value.

Structure (SMILES)	inhibition
CN(C)C1(CNC(=O)c2ccc(S(C)(=O)=O)cc2)CCCCC1	inactive: -1.39%
O=C(/C=C/c1ccccc1)OC1CN2CCC1CC2 (stereo unspecified)	inactive: -13.3%
CC1CCC(C(C)C)C(OP(=O)(Nc2ccccn2)c2ccccc2)C1 (stereo unspecified)	inactive: 12.2%
Cc1ccc(C(=O)OC2CN3CCC2CC3)cc1 (stereo unspecified)	inactive: -1.66%
Cc1nn(-c2ccccc2)c2c1P(=O)(N1CCOCC1)N(C)C(c1ccccc1)=N2 (stereo unspecified)	inactive: -10.2%
Nc1cccc([As](=O)(O)c2ccccc2)c1	inactive: 4.25%
O=P1(Nc2ccc(Br)cn2)COc2ccccc2OC1	inactive: 8.02%
NS(=O)(=O)c1cccc(NC(=O)COC(=O)C(O)(c2ccccc2)c2ccccc2)c1	inactive: 0.171%
O=[As](O)(c1cccs1)c1cccs1	inactive: -2.83%
Cc1ccc(OCC(=O)OC2CN3CCC2CC3)cc1 (stereo unspecified)	inactive: -1.67%
O=P1(Nc2ncccn2)COc2ccccc2OC1	inactive: 4.67%
C[C@H]1OP(=O)(Oc2ccccc2)[C@H](O)[C@H](O)[C@H]1N=[N+]=[N-] (stereo partly specified)	inactive: -9.11%
O=P(Nc1nc2ccccc2s1)(c1ccccc1)c1ccccc1	inactive: 0.769%
O=P(Nc1ccccn1)(c1ccc(Br)cc1)c1ccc(Br)cc1	inactive: 6.73%
CN(C)C1(CNC(=O)c2ccc(Cl)c(S(N)(=O)=O)c2)CCCCC1	inactive: -0.918%
O=C(OC1CN2CCC1CC2)c1cccc(Cl)c1 (stereo unspecified)	inactive: -5.78%
Nc1ccc([As](=O)(O)c2ccc([N+](=O)[O-])cc2)cc1	inactive: -15.2%
C(Cc1nn[nH]n1)Cc1nn[nH]n1	inactive: -2.73%
O=[As](O)(c1ccccc1)c1ccc(O)cc1	inactive: 10%
O=[N+]([O-])c1ncn(CCn2cnc([N+](=O)[O-])n2)n1	inactive: -16.7%
c1nnnn1CCn1cnnn1	inactive: 12%

Structure (SMILES)	inhibition
CC(C)C(=O)NC(Sc1ccccc1)C(Cl)(Cl)Cl (stereo unspecified)	inactive: -9.74%
O=P(Nc1nccs1)(c1ccccc1)c1ccccc1	inactive: -5.85%
CC(C)(C)C(=O)NC(Sc1ccccc1)C(Cl)(Cl)Cl (stereo unspecified)	inactive: 6.32%
CCOc1ccc(C2=NCC(CBr)S2)cc1 (stereo unspecified)	inactive: -2.48%
O=P1(Nc2nc3ccc(Cl)cc3s2)COc2ccccc2O1 (stereo unspecified)	inactive: 0.662%
CC(=O)Nc1ccc([As](=O)(O)O)c(O)c1	inactive: 1.86%
C[C@@H]1C=CCP(=O)(Oc2ccccc2)O1 (stereo partly specified)	inactive: -3.93%
C[C@H]1OP(=O)(Oc2ccccc2)C[C@@H]2O[C@@H]21 (stereo partly specified)	inactive: -7.42%
Cc1ccccc1CN(C)C(=O)COC(=O)C(O)(c1ccccc1)c1ccccc1	inactive: 17.7%
CC(=O)c1ccc(N2CC2c2ccncc2)cc1 (stereo unspecified)	inactive: 2.26%
CCOC(=O)NC(Sc1ccccc1)C(Cl)(Cl)Cl (stereo unspecified)	inactive: 3.68%
Cc1ccc(NP(=O)(Oc2cccc(C)c2)Oc2cccc(C)c2)nc1	inactive: -0.045%
c1ccc(-c2nn[nH]n2)c(-c2nn[nH]n2)c1	inactive: 2.89%
CCNC(=S)/N=C(\N)N[N+](=O)[O-]	inactive: -15.1%
O=C(NC1CCS(=O)(=O)C1)NP(=S)(Oc1ccccc1)Oc1ccccc1 (stereo unspecified)	inactive: -2.37%
CN(C)C(=O)Oc1noc2ccccc12	inactive: -1.64%
Cc1ccccc1OP(=O)(Nc1ccccn1)Oc1ccccc1C	inactive: 9.6%
CC(NC(=O)COC(=O)C(O)(c1ccccc1)c1ccccc1)c1ccccc1 (stereo unspecified)	inactive: 13.7%
CCC(=O)N1C2C3N(C(=O)CC)C1C1N(C(=O)CC)C(C(N1C(=O)CC)N3C(=O)CC)N2C(=O)CC	inactive: 13.1%
O=C(OC1CN2CCC1CC2)c1ccccc1 (stereo unspecified)	inactive: 4.25%
Cc1ccc(OP(=O)(Nc2ccccn2)Oc2ccc(C)cc2)cc1	inactive: 15.3%

Structure (SMILES)	inhibition
CC(=O)NC(SC(=S)N(CC(C)C)CC(C)C)C(Cl)(Cl)Cl (stereo unspecified)	inactive: 1.34%
COC(=O)c1cc2c(s1)N=C(c1ccccc1)N(C)P2(=O)N1CCOCC1 (stereo unspecified)	inactive: -0.879%
Cc1ccc(NP(=O)(Oc2ccccc2F)Oc2ccccc2F)nc1	inactive: -2.97%
CN(C(=O)Cc1ccc(Cl)c(Cl)c1)[C@H]1CCCC[C@@H]1N1CCCC1	inactive: -7.75%
CCOP(=O)(Nc1ccccc1)OCC	inactive: 8.97%
Cc1cc(SC(NC(=O)c2ccc(F)cc2)C(Cl)(Cl)Cl)ncn1 (stereo unspecified)	inactive: -4.2%
O=P(Nc1nc2ccc(Cl)cc2s1)(c1ccccc1)c1ccccc1	inactive: 14.4%
O=C(O)c1ccccc1[As](=O)(O)O	inactive: 3.26%
CC(=O)Nc1ccc([As](=O)(O)O)cc1	inactive: 4.28%
CCN(N=Nc1nonc1N)c1nonc1N	inactive: -11.8%
O=[N+]([O-])c1cc([N+](=O)[O-])c(CCN2CCOCC2)c([N+](=O)[O-])c1	inactive: 17.8%
Clc1ccc(Cl)c(NC2=NCC(CBr)S2)c1 (stereo unspecified)	inactive: 11.1%
CN1CCCC(OC(=O)C(c2ccccc2)c2ccccc2)C1 (stereo unspecified)	inactive: -6.51%
Cc1ccc(OP(=O)(Nc2nccs2)Oc2ccc(C)cc2)cc1	inactive: 5.2%
COc1ccccc1OP(=O)(Nc1ccc(C)cn1)Oc1ccccc1OC	inactive: 4.38%
Cc1ccc(N/C(=N/P(=O)(N2CCOCC2)N2CCOCC2)N2CCOCC2)cc1	inactive: -16.8%
CN(C(=O)Cc1ccc(Cl)c(Cl)c1)[C@H]1CCCC[C@H]1N1CCCC1	inactive: 5.22%
NC(=O)c1cc([N+](=O)[O-])cc([N+](=O)[O-])c1N	inactive: -4.52%
Cc1c2non([O-])c-2c(C)[n+](=O)[n+]1[O-]	inactive: -1.51%
O=C(NC(Sc1ccncn1)C(Cl)(Cl)Cl)c1ccccc1 (stereo unspecified)	inactive: -2.17%
Oc1ccccc1CNc1ccccn1	inactive: -28.6%

Structure (SMILES)	inhibition
CC(C)CC(=O)NC(Sc1ccc(Cl)cc1)C(Cl)(Cl)Cl (stereo unspecified)	inactive: -6.44%
Nc1cc(N)c2nonc2c1[N+](=O)[O-]	inactive: -6.32%
CCc1nc2c(n1)c1c(non1O)c1c2no[n+]1[O-]	active: 58%
O=[N+]([O-])c1cc([N+](=O)[O-])c(CCNc2ccccc2)c([N+](=O)[O-])c1	inactive: 26.6%
Cc1ccc(NP(=O)(Oc2ccccc2)Oc2ccccc2)nc1	inactive: 10.6%
O=[N+]([O-])c1cccc2n[nH]nc12	inactive: 5.74%
CC(=O)N1C2C3N(C(C)=O)C1C1N(C(C)=O)C(C(N1C(C)=O)N3C(C)=O)N2C(C)=O	inactive: -1.46%
COc1ccc(C2=NCC(CBr)S2)cc1 (stereo unspecified)	inactive: -1.76%
CC1CCN(C(=O)Oc2c(Cl)cc(Cl)c3cccnc23)CC1	inactive: 23.9%
CN(C)C(=O)OCCc1n(C)cc[n+]1C	inactive: 11.1%
CC(C)=N/N=C(\N)N[N+](=O)[O-]	inactive: 7.16%
CCN(/C(=N/P(=O)(N1CCOCC1)N1CCOCC1)N1CCOCC1)c1ccc(OC)cc1	inactive: 2.09%
C[N+]1=C2C=CC=CC=C2SC12C([N+](=O)[O-])=CC([N+](=O)[O-])=C[C-]2[N+](=O)[O-] (stereo unspecified)	active: 51.7%
Nc1ccc([As](=O)(O)c2ccc(N)cc2)cc1	inactive: 3.32%
O=C(Nc1cc([As](=O)(O)O)ccc1O)c1ccccc1	inactive: 5.11%
O=[N+]([O-])c1cccc(NC2=NCC(CBr)S2)c1 (stereo unspecified)	inactive: -11.1%
O=[N+]([O-])c1ncn(CCn2ncnc2[N+](=O)[O-])n1	inactive: -10.2%
CC(C)(C)C(=O)NC(Sc1ccncn1)C(Cl)(Cl)Cl (stereo unspecified)	inactive: -11.6%
